Reference: patent US20110172163A1, “Novel Protease Inhibitors” (QUEENSLAND UNIVERSITY OF TECHNOLOGY, priority 2008, published 2011)

Target: T1, bovine α-chymotrypsin (Bos taurus, UniProt P00766)
T1 construct: purchased Sigma Chemicals
Experiment: Inhibitor kinetics: α-chymotrypsin amidolytic activity
Assay type: biochemical
Conditions: substrate W-pNA (0.2 mM)
Description: All enzymes and substrates were obtained from Sigma Chemicals if not otherwise specified. […] The release of pNa moiety was monitored as described above for 7 minutes with each point being the average of three independent triplicate reactions. IC50 was determined using the Prism 5 software suite (GraphPad software Inc.).

Sunflower trypsin inhibitor [SFTI-1, reference compound]
IC50: 1.8 µM
